In PubChem BioAssay AID588676 (Johns Hopkins Ion Channel Center, 2011) one finds B-score data, which are given here for two molecules.

Chains of the proteins cited; added tags and fusions are not shown. Lines headed by an entry give the natural chain unless they say otherwise; changes in a name come on top.
UniProt Q96LB2: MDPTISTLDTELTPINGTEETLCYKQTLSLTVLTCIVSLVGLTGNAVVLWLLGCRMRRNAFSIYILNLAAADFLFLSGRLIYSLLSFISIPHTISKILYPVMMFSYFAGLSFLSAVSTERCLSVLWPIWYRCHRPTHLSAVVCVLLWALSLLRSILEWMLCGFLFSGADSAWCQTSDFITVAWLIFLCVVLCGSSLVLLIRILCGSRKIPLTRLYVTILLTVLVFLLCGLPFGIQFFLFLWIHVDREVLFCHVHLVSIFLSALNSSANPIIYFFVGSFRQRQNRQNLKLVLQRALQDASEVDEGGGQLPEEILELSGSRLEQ

This is a selection; strong and weak results do not stand in their true shares. Active and inactive are the calls of the source.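 The calls were made as follows: active = calcium-response B-score plate-corrected more than 3 library SD below zero, starting fluorescence within 5 deviations, no agonist response on first addition; inactive = the rest.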

The target of the test is Mas-related G-protein coupled receptor member X1 (Homo sapiens) (UniProt Q96LB2). The experiment in a line: antagonists of human MrgX1 receptor, primary screen, HEK293 cells, Fluo-4 calcium flux (AID 588676).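 Also: peak minus trough fluorescence over baseline after final BAM8-22 challenge near maximal dose.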 Particulars: Fluo-4, BAM8-22 antagonism, at 10 µM, hits give low values. A general note: A change in cytosolic calcium serves as a functional read-out for many receptors and channels.
For the molecule `CCc1nc2c(n1)c1c(non1O)c1c2no[n+]1[O-]`, the B-score was active: -4.84. In the case of `O=[N+]([O-])c1ccc(O)c(/C=N/Nc2ccc([N+](=O)[O-])cc2[N+](=O)[O-])c1` it was active: -4.84.
